This assay has as its target human serotonin 5-HT7 receptors (Homo sapiens, UniProt P34969). The conditions noted are these: FIG. 1B.

By UniProt entry, the sequences of proteins in these tests, tags left out.
UniProt P34969, whole entry: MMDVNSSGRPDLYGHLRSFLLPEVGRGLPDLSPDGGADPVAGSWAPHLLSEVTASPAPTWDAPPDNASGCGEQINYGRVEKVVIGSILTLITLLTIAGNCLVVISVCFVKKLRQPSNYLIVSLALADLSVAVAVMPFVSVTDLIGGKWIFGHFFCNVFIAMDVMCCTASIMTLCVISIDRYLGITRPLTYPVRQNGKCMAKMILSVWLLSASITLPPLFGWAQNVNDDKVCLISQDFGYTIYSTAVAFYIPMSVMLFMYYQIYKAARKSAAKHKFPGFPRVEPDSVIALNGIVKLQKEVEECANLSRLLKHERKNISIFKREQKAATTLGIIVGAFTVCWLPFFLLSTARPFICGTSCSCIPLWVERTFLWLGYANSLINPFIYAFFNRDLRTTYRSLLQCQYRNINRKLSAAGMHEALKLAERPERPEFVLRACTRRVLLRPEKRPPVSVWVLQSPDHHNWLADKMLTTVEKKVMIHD

Structures are written as SMILES.

In the case of `CCN1CCC[C@@H]1CNC(=O)c1cc(S(=O)(=O)CC)c(N)cc1OC` [(R)-amisulpride, R-4-Amino-N-[(1-ethyl-2-pyrrolidinyl)methyl]-5-(ethylsulfonyl)-2-methoxybenzamide], the “5-HT7 antagonism of (R)-amisulpride relative to (S)-amisulpride” value is listed as “about 300 fold”. Further, the “relative potency of the enantiomers, % inhibition of serotonin 5-HT7 binding” value (3 independent determinations) is on record as “more potent”.
